{
  "sequences": {"note": "Amino acid sequences for entries named in this document (tags omitted).", "UniProt P30411, whole entry": "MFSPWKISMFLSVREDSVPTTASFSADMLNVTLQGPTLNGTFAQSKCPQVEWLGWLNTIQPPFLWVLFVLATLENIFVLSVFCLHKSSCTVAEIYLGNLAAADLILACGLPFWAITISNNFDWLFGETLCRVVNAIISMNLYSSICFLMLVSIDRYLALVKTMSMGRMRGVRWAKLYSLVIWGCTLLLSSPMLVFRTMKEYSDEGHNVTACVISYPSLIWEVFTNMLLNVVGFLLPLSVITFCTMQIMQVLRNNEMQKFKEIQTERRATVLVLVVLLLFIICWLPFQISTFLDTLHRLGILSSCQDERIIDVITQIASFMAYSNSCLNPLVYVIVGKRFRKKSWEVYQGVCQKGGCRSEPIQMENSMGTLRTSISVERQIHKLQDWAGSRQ"},
  "source": "patent US8642259B2",
  "about": "“Method for identifying substances capable of modulating the activity of a target molecule” (Sanofi-Aventis Deutschland GmbH, priority 2002, dated 2014)",
  "biological_target": "T1, human bradykinin B2 receptor (Homo sapiens, UniProt P30411)",
  "T1 construct": "expressed in transfected cells; host or cells: Saccharomyces cerevisiae strain YEW3 (Gpa1/Gαq transplant), episomal vector p426GPD",
  "test": "Double reporter gene assay (antagonist format), yeast strain YEW3 (Gpa1/Gαq)",
  "assay_type": "cell-based",
  "details": "each well 1 nM bradykinin agonist plus dilutions of antagonist; 2 mM 3-AT; FIG. 5",
  "description": "All measurements are averages from triplicate determinations.\nYeast strain YLJ21 was transformed either with the empty vector p426GPD or with human GPCRs EDG1 and EDG5 which had been cloned into p426GPD. The transformed yeasts were then cultivated in 2 ml of SC/Gluc-Ura at 30° C. overnight. […] The plates were incubated with shaking (700 rpm) at 30° C. for 23 h. The turbidity resulting from growth of the yeast cells was measured at 630 nm in the photometer (FIGS. 3A and B, in each case left-hand graph). This was followed by adding 50 μl of assay mix per well.\nThe yeast strain YEW3 (Gpa1/Gαq) was transformed either with the empty vector p426GPD or the human bradykinin B2 receptor cloned into p426GPD. The assay was carried out in a similar way to example 2. The only difference was that each well of the test plate contained 1 nM bradykinin agonist, to which dilutions of the antagonist HOE140 (Sigma; Hall, Gen.Pharmacol. 28,1-6 (1997)) had been added. […] Thus the double reporter gene assay is also suitable for antagonist assays.",
  "data": [
    {"substance": "HOE140", "values": [
      {"measurement": "effect on the signal caused by bradykinin (β-galactosidase activity, absorption at 574 nm)", "result": "suppress the signal caused by bradykinin to the background level"}
    ]}
  ]
}
